From patent US8765779B2, “Tricyclic derivatives and their pharmaceutical use and compositions” (Cephalon, Inc., priority 2009, dated 2014)

The chains behind the UniProt entries cited, without tags or fusion partners.
UniProt P50406, whole entry: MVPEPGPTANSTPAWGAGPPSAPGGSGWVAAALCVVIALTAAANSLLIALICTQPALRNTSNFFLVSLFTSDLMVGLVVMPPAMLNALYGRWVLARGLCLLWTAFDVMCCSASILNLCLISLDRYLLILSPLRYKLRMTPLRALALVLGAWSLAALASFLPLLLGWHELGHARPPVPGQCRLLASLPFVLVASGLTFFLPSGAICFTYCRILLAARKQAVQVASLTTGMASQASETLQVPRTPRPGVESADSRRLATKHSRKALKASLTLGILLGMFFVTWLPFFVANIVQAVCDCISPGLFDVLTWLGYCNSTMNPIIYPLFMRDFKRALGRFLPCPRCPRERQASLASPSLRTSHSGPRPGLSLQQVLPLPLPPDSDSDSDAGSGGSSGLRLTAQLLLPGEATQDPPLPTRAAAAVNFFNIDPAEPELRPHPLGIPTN

These compounds were tested against human 5-HT6 receptor (Homo sapiens, UniProt P50406) (assay: Human 5-HT6 Receptor Binding Assay ([3H]LSD displacement, scintillation beads)). Details: read-out: h5-HT6 (Ki); membranes of CHO-K1 cells with recombinant human 5-HT6, 4 nM [3H]LSD; Table 1, class symbols; tested form: HCl.
`O=S(=O)(c1cc(F)cc(F)c1)c1ccc2c3c([nH]c2c1)C1(CCCOC1)NCC3` (single isomer, unassigned) showed a Ki of under 500 nM.
With `O=S(=O)(c1cccc(C(F)(F)F)c1)c1ccc2c3c([nH]c2c1)C1(CCCOC1)NCC3` (single isomer, unassigned) the Ki was under 500 nM.
For `O=S(=O)(c1cccc(OC(F)(F)F)c1)c1ccc2c3c([nH]c2c1)C1(CCCOC1)NCC3` (single isomer, unassigned), the Ki was under 500 nM.
`O=S(=O)(c1ccccc1)c1ccc2c3c([nH]c2c1)C1(CCCOC1)NCC3` (single isomer, unassigned) gave a Ki of under 500 nM.
